# Screening results from PubChem.
# Hits are enriched below; roughly 13% of the tested compounds scored in any of these assays.
# ALDH1A1 block = blocks purified human ALDH1A1 activity; Purified ALDH1A1, NADH fluorescence, propionaldehyde substrate; P00352; AID 1030; 220,000 compounds, 7.3% hits; Potency, µM (highest dose often 75.3 µM), for inactives: top-dose activity, negative = inhibition, hits mostly inhibitors; active = well fitted inhibition curve with a large enough effect, not every such curve was filed as active; inconclusive = small, poorly fitted or top-dose-only effect, or another doubt; inactive = no such curve, though single readings can be large or run the other way;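 also: potency is read from the fitted curve at half-maximal effect; plate controls were no enzyme wells and a reference inhibitor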
# Sfp inh = inhibitors of Bacillus subtilis Sfp phosphopantetheinyl transferase; Q9F4F7; Biochemical Sfp PPTase activity, qHTS; Potency, µM, inactives show max response, negative = inhibition, actives largely listed as inhibitors; hit rate 3.5% among 310,000; AID 1490; active means well fitted inhibition curve with a large enough effect; inconclusive means small, poorly fitted or top-dose-only effect, or another doubt; inactive means no such curve, though single readings can be large or run the other way;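 further: the enzyme is Sfp with the accession as filed and its product quenches rhodamine fluorescence; potency means the concentration at half of the fitted maximal effect; 0% = enzyme reaction without inhibitor and -100% = no enzyme wells; top concentration of the series not given in the record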
#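 Reaction rates are the 30-min fluorescence difference (ex 525, em 598 nm) in wells containing 15 nM Sfp, 5 uM rhodamine-CoA and 12.5 uM BHQ-2-YbbR at pH 7.6 with 10 mM MgCl2.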
# G9a inh = inhibitors of human histone lysine methyltransferase G9a; G9a H3K9 monomethylation, AlphaScreen, 2 h; Potency, µM (series often up to 102 µM), for inactives: at the highest dose activity, negative = inhibition, actives largely listed as inhibitors; 350,000 compounds, 8.8% hits; Q96KQ7; also: potency is read from the fitted curve at half-maximal effect; % is scaled to controls: 0 for no effect and ±100 for the full control effect; nearly all actives have a fitted effect of over 75% in size
#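 Enzyme 20 nM + cpd, 15 min RT; add b-H3K9 pep 500 nM / SAM 20 uM; 2 h RT; anti-H3K9me1 Ab 0.5 ug/mL + SA donor / anti-rabbit acceptor beads 20 ug/mL each, 10 min; AlphaScreen read.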
# LMNA splice mod = changes lamin A minigene splicing in HeLa cells; 200,000 compounds, 0.01% hits; AID 1487; HeLa LMNA splicing GFP/RFP minigene ratio, 48 h; Potency, µM (doses to about 46.1 µM), inactives show at the highest dose ratio change, negative = inhibition, usual class: inhibitors; active = well fitted inhibition curve with a large enough effect in the signal ratio, with a control signal flat, not every such curve was filed as active; inconclusive = small, poorly fitted or top-dose-only effect, or effect the other way, or a change in a side signal; the % refers to the signal ratio; also: potency is read from the fitted curve at half-maximal effect; % is scaled to controls: 0 for no effect and ±100 for the full control effect
#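 S3 HeLa stable clones carrying a lamin A-EGFP splicing minigene plus DsRed2 were seeded at 600 cells/well in Opti-MEM with 2% FBS, pin-dosed and incubated 48 h at 37°C. Acumen cytometry (488 nm) gave the GFP/RFP total-intensity ratio.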
# JMJD2E inh = inhibitors of human JMJD2E histone demethylase | JMJD2E catalytic domain, FDH-coupled NADH fluorescence (FDH is formaldehyde dehydrogenase) | Potency, µM (highest dose often 57.1 µM), for the others: top-dose activity change, negative = inhibition, most hits filed as inhibitors | 230,000 compounds, 1.6% hits | AID 2147; active = well fitted inhibition curve with a large enough effect, not every such curve was filed as active; inconclusive = small, poorly fitted or top-dose-only effect, or another doubt; inactive = no such curve, though single readings can be large or run the other way;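 also: potency is read from the fitted curve at half-maximal effect; 0% = wells with enzyme and -100% = buffer wells without enzyme; nearly all actives have a fitted effect of over 50% in size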
# miR-21 FLuc = raises the signal of a miR-21 reporter | Potency, µM (doses to about 38.3 µM), for inactives: top-dose reporter change, positive = more light | HeLa miR-21 FLuc reporter, luciferase, 48 h | AID 2288 | 340,000 tested, under 10 active; active = well fitted rising curve with a large enough effect; inconclusive = small, poorly fitted or top-dose-only effect; inactive = no such curve, though single readings can be large or run the other way;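 also: % of control where 0% means no effect; miR-21 action dims this reporter so a rising signal means less miR-21 action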
#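 HeLa miR-21-FLuc reporter line, endogenous miR-21; 2000 cells/well in DMEM/10% FBS; compound titration up to ~40uM final, 48 h, 37 degree Celsius; luciferase detection reagent, 15 min lysis, CCD luminescence.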
# Starred values were filed as active, the others as inactive; ? = inconclusive; . = not tested or not shown; [ ] = another dose, or the depositor's remark. Unless noted, calls follow the shape of the dose curve; as a rule, active = well fitted curve in the direction sought with a large enough effect; inconclusive = small, poorly fitted or top-dose-only effect, or another doubt; inactive = no such curve, though single readings can be large; an effect the other way counts as inactive or inconclusive.
item | Structure | ALDH1A1 block | Sfp inh | G9a inh | LMNA splice mod | JMJD2E inh | miR-21 FLuc
1 | CSc1ccccc1NC(=O)c1ccc(N2CC3CC(C2)c2cccc(=O)n2C3)c(NC(=O)c2cccnc2)c1 (stereo not drawn) | . | -3% | 71µM* | . | . | -10%
2 | COCCNC(=O)c1ccc(N2CC3CC(C2)c2cccc(=O)n2C3)c(NC(=O)c2ccc(F)cc2)c1 (stereo not drawn) | . | 6% | . | . | . | -6%
3 | COc1ccccc1NC(=O)c1ccc(N2CC3CC(C2)c2cccc(=O)n2C3)c(NC(=O)c2ccncc2)c1 (stereo not drawn) | . | -29% | 16µM* | . | . | -3%
4 | COc1ccc(C2=NN(C(N)=S)C(c3ccco3)C2)cc1 (stereo not drawn) | 18µM* | 11µM* | 22µM* | -15%[46 µM] | ? | -39%
5 | COc1ccc(C2=NN(C(=O)CSc3nnc(-c4ccccc4F)o3)C(c3ccco3)C2)cc1 (stereo not drawn) | ? | -12% | 45µM* | ? | ? | -23%
6 | Cc1nc2ccn(Cc3cccs3)c(=O)c2cc1C(=O)Nc1ccccc1 | . | . | -7%[59 µM] | ? | . | 28%
7 | O=c1c(/C=N/N2CCOCC2)c(C(F)(F)F)[nH]n1-c1ccccc1 | 0% | -9% | 40µM* | ? | -14% | -2%
8 | CN(C)Cc1c(-c2ccc(Cl)cc2)nc2ccc(Cl)cn12 | ? | 18% | 10% | . | -16% | -12%
9 | O=Cc1coc2ccc3ccccc3c2c1=O | . | 16% | 50µM* | . | . | 3%
10 | NC(=O)c1ccsc1NC(=O)CS(=O)(=O)c1ccc(F)cc1 | . | . | -5% | . | . | .
11 | Cc1cc(C)cc(NC(=O)C2CCN(S(C)(=O)=O)CC2)c1 | . | 9% | -10%[0.501 µM] | . | . | -6%
12 | Cc1cc(C)cc(NC(=O)C2CCN(c3nccs3)CC2)c1 | 10% | 89µM* | 9% | -4% | 3% | 6%
13 | COc1ccc(C)cc1NC(=O)c1cccc(-c2ccc(OC(C)=O)cc2)c1 | . | 12% | 20% | . | . | -4%
14 | Clc1ccc(OCCn2cnc(Cl)c2Cl)cc1 | . | 19% | 50µM* | . | 11% | -12%
15 | Cc1nccn1CCOc1ccc(Cl)cc1 | . | -22% | 8.9µM* | . | . | -2%

# Next results:
item | Structure | ALDH1A1 block | Sfp inh | G9a inh | LMNA splice mod | JMJD2E inh | miR-21 FLuc
16 | O=c1ccn(CCOc2ccc(Cl)cc2)c(=O)[nH]1 | 1% | 4% | -14%[2.33 µM] | 2% | 7% | -5%
17 | Cc1ccc(C(C)C)c(OCCn2ccnc2C)c1 | . | -29% | 10µM* | . | . | -2%
18 | Cc1ccc(C(C)C)c(OCCNCCc2ccccc2)c1 | . | -25% | . | . | . | 8%
19 | Cc1ccc(C(C)C)c(OCCCNCc2cccnc2)c1 | -1% | -11% | 50µM* | -5%[46 µM] | -4% | -6%
20 | COc1ccc(OCCn2cnc(Cl)c2Cl)cc1 | . | 10% | -25% | . | 12% | -22%
21 | CSc1ncc(C(=O)NCc2ccc(Cl)cc2)c(C(F)(F)F)n1 | . | . | 3%[59 µM] | ? | . | 1%
22 | COc1ccc(C(=O)CSC#N)cc1OC | 1.3µM* | -1% | ? | -20%[46 µM] | 11% | -2%
23 | COc1ccc(C(=O)COC(=O)c2ccc(OC)c(OC)c2)cc1OC | 9% | 17% | -7%[12.7 µM] | -13% | 2% | -6%
24 | CCC(=O)c1ccc(OCC(=O)O)c(OC)c1 | -6% | 14% | 79µM* | . | -4% | -1%
25 | O=C(Nc1ccc(Cl)c(C(F)(F)F)c1)C(Cc1ccccc1)NS(=O)(=O)c1cccc2nsnc12 (stereo not drawn) | . | . | -1%[59 µM] | . | . | 20%
26 | O=C1N=c2ccccc2=C1c1sc(=S)n(NC(=O)c2ccccc2)c1O | . | -10% | 40µM* | . | -7% | -3%
27 | COc1ccc(CN2CCNC(=O)C2CC(=O)N(C)CCC2CCOCC2)c(OC)c1 (stereo not drawn) | . | 4% | -13% | . | . | 0%
28 | CCCCNc1ccc(C(=O)O)cc1 | . | 16% | 5% | . | -17% | -2%
29 | c1ccc(NCCCNc2ccccc2)cc1 | 20µM* | 2% | ? | 8% | 2% | -10%
30 | COc1ccc(/C=N/NC(=O)c2ccc(NC(=O)c3cccc([N+](=O)[O-])c3)cc2)c(OC)c1 | ? | 8% | 8% | ? | 2% | 5%

# Single records (already shown):
# Results for `Cc1ccc(C(C)C)c(OCCCNCc2cccnc2)c1` = ALDH1A1 block: -1%; Sfp inh: -11%; G9a inh: 50µM*; LMNA splice mod: -5%[46 µM]; JMJD2E inh: -4%; miR-21 FLuc: -6%
# Results for `CCCCNc1ccc(C(=O)O)cc1` = ALDH1A1 block: .; Sfp inh: 16%; G9a inh: 5%; LMNA splice mod: .; JMJD2E inh: -17%; miR-21 FLuc: -2%
# Results for `CSc1ncc(C(=O)NCc2ccc(Cl)cc2)c(C(F)(F)F)n1` = ALDH1A1 block: .; Sfp inh: .; G9a inh: 3%[59 µM]; LMNA splice mod: ?; JMJD2E inh: .; miR-21 FLuc: 1%
